9 molecules from patent publication US10118927B2, “Substituted piperidin-4-amino-type compounds and uses thereof” (dated 2018) can be followed below.

Chains of the proteins cited; added tags and fusions are not shown.
UniProt P41146, whole entry: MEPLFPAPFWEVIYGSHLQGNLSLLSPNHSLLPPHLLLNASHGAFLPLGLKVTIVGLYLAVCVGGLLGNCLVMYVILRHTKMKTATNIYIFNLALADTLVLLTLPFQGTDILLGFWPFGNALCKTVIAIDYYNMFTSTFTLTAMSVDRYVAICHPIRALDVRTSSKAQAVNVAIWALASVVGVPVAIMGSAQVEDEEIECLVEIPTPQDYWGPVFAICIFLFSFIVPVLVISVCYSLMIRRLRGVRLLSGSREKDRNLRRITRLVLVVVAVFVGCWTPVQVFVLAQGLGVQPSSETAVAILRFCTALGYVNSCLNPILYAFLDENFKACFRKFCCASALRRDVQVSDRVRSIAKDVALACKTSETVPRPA
UniProt P41143, whole entry: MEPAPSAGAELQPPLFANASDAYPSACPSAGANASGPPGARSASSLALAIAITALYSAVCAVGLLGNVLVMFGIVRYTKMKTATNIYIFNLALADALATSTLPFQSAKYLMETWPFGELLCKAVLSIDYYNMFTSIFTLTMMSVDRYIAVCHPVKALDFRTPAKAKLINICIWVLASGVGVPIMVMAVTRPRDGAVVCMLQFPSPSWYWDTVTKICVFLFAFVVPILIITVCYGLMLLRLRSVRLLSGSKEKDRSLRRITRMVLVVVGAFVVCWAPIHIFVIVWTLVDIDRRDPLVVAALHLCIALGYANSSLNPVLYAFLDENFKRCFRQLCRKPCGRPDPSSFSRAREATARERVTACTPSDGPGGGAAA
UniProt P41145, whole entry: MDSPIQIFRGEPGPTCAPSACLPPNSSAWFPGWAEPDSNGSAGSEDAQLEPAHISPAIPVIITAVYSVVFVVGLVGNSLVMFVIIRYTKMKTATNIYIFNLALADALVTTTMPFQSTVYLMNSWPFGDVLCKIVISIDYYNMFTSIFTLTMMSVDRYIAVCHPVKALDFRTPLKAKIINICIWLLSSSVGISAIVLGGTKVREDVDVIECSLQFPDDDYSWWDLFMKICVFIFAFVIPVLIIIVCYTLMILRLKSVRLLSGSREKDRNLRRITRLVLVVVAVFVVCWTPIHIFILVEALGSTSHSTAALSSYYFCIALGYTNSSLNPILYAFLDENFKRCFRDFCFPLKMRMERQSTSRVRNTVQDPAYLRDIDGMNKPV

SMILES strings stand for the structures. Some compounds may have been tested in ways that are not shown here. Some results are limits rather than exact numbers.

Assay [1] addresses T1, human opioid receptor-like (ORL-1) (Homo sapiens, UniProt P41146). The assay is described as follows: In vitro ORL-1 receptor functional assay ([35S]GTPγS binding). As to conditions: for EC50: read-out: GTPγS ORL-1 EC50 [mean ± SEM], [35S]GTPγS, HEK-293 membranes; for GTPγS ORL-1 Emax [mean ± SEM]: relative to the effect elicited by nociceptin. On the technique in general: Binding of GTPγS marks nucleotide exchange on a G protein.

For assay [2], the target named is T1, human opioid receptor-like (ORL-1). The assay is described as follows: In vitro ORL-1 receptor binding assay ([3H]-nociceptin displacement). As to conditions: read-out: Ki [Average ± Std Deviation] ORL-1; membranes from recombinant HEK-293 cells; 0.1 nM [3H]-nociceptin.
For the next assay, the target named is delta opioid receptor (Homo sapiens, UniProt P41143). The assay is described as follows: In vitro delta-opioid receptor binding assay ([3H]-Naltrindole displacement). As to conditions: read-out: Ki [Average ± Std Deviation] Opioid Receptor Delta; CHO-K1 membranes; 0.2 nM [3H]-Naltrindole.
The target of assay [3] is T2, kappa opioid receptor (Homo sapiens, UniProt P41145). The assay is described as follows: In vitro kappa-opioid receptor functional assay ([35S]GTPγS). As to conditions: read-out: GTPγS Opioid Receptor EC50 Kappa [mean ± SEM].
For assay [4], the target named is T2, kappa opioid receptor. The assay is described as follows: In vitro kappa-opioid receptor binding assay ([3H]-U69,593 displacement). As to conditions: read-out: Ki [Average ± Std Deviation] Opioid Receptor Kappa, HEK-293 membranes.

What is called EC50 is the concentration that produces a half-maximal response. For `O=C(O)C1CCCN1C(=O)N(c1ccccc1)[C@H]1C[C@H]2CCC[C@@H](C1)N2[C@H]1C[C@@H]2CCC[C@@H](C2)C1` (some centres unmarked), in assay [1], the EC50 is greater than 20000 nM and the “GTPγS ORL-1 Emax [mean ± SEM]” value turned out to be 0.5 ± 0.5%. Moreover, in assay [2], the Ki worked out at 18.2 nM.

`O=C(O)[C@H]1CCCN1C(=O)N(c1ccccc1)[C@H]1C[C@H]2CCC[C@@H](C1)N2[C@H]1C[C@@H]2CCC[C@@H](C2)C1`: in assay [1], the EC50 was greater than 20000 nM. For the same molecule, in assay [2], the Ki was 32.6 nM.

`CC(=O)N(c1ccccc1NCC(=O)O)[C@H]1C[C@H]2CCC[C@@H](C1)N2C1CCCCCCC1`: the Ki in assay [2] is greater than 20000 nM.

Turning to `CC(=O)N(c1ccccc1NCC(=O)O)[C@H]1C[C@H]2CCC[C@@H](C1)N2[C@H]1C[C@@H]2CCC[C@@H](C2)C1`, the EC50 in assay [1] was found to be 683 nM. Besides, the “GTPγS ORL-1 Emax [mean ± SEM]” value in assay [1] is reported as 38.25 ± 3.07%. Further, the figures for the Ki (in assay [2]; at delta opioid receptor) were 263 nM and greater than 20000 nM, respectively.

For the molecule `C[C@@H]1C[C@@H]2C[C@H](C1)C[C@@H](N1[C@@H]3CCC[C@H]1C[C@@H](N(C(=O)C(=O)O)c1ccccc1NC(=O)C(=O)O)C3)C2`, the 50% effective concentration (EC50) in assay [1] was 8.1 nM; on kappa opioid receptor [3] it was greater than 20000 nM. For the same molecule, in assay [1], the “GTPγS ORL-1 Emax [mean ± SEM]” value was 31 ± 0.58%. In addition, the Ki is 9.14 nM in assay [2], 289 nM at kappa opioid receptor [4] and greater than 20000 nM at delta opioid receptor.

With `O=C(O)[C@@H]1CCN(C(=O)N(c2ccccc2)[C@H]2C[C@H]3CCC[C@@H](C2)N3[C@H]2C[C@@H]3CCC[C@@H](C3)C2)C1`, in assay [2], the Ki came to 780 nM.

On to `O=C(O)CC(=O)N(c1ccccc1)C1CCN(C2CCCCCCC2)CC1`, for which, in assay [2], the Ki turned out to be 5610 nM.

Turning to `O=C(O)C(=O)Nc1ccccc1N(C(=O)C(=O)O)[C@H]1C[C@H]2CCC[C@@H](C1)N2[C@H]1C[C@@H]2CCC[C@@H](C2)C1`, in assay [1], the EC50 came out at 12.4 nM and the “GTPγS ORL-1 Emax [mean ± SEM]” value is on record as 23 ± 2.68%. Also, the Ki in assay [2] was 21.5 nM.

In the case of `O=C(O)[C@@H]1CCCN1C(=O)N(c1ccccc1)[C@H]1C[C@H]2CCC[C@@H](C1)N2[C@H]1C[C@@H]2CCC[C@@H](C2)C1`, the EC50 in assay [1] was greater than 20000 nM. Besides, the Ki in assay [2] was 67.6 nM.
